Assays:
[1] = target: T1, FP receptor (Homo sapiens, UniProt P43088); experiment: electrophysiological assay (Ca2+-dependent Cl- current) in pcDNAIamp-FP-injected Xenopus oocytes; format: cell-based; settings: perfusion of 10 to 20 nM, oocyte voltage clamped at -60 mV
T1 construct: A long open reading frame (1077 bp) was determined which would result in a 359 amino acid polypeptide; expressed in transfected cells; host or cells: Xenopus laevis oocytes (stage 5-6), nuclear injection of 1-5 ng pcDNAIamp-FP plasmid
Method: (§1) Ooctyes were taken from adult females of Xenopus laevis using standard surgical procedure (Colman, A., 1984 In: Transcription and Translation—A Practical Approach, IRL Press). To remove follicle cells, oocytes were treated for 2-3 h with freshly made collagenase (2 mg/ml, type 2, Worthington Biochemical Corp., Freehold, N.J.) in Ca^2+-free ND96 solution (ND96 in mM: NaCl 96, KCl 2, MgCl2 1, HEPES 5, Na-pyruvate 2.5, theophylline 0.5, gentamicin […], +1.8 CaCl2, pH 7.6). Defolliculated stage 5-6 oocytes were selected and maintained in ND96 solution. Ooctye nuclei were injected with 1-5 ng of pcDNAIamp-PP and then incubated at 18° C. for 48 h before challenge with agonist. Functional activity was determined by measurement of either agonist-induced Ca^2+-dependent Cl^− current or light emission in oocytes injected with the Ca^2+-specific photoprotein aequorin (J. Blinks, Friday Harbor Photoproteins, Wash.), (Giladi and Spindel 1991 Biotechniques, 10, pp 744-747). […] Ligand-containing solution was perfused and the current response was recorded. For the luminometric assay, aequorin-loaded oocytes (100 ng/oocyte) were placed individually in cuvettes containing 0.4 ml ND96 and the light emission provoked by ligand addition was recorded using a Bio-Orbit 1251 luminometer (Fisher Sci. Ltd.).

By UniProt entry, the sequences of proteins in these tests, tags left out. Where a name states a change or a piece, a line headed by the entry shows the natural chain unless it says otherwise.
UniProt P43088: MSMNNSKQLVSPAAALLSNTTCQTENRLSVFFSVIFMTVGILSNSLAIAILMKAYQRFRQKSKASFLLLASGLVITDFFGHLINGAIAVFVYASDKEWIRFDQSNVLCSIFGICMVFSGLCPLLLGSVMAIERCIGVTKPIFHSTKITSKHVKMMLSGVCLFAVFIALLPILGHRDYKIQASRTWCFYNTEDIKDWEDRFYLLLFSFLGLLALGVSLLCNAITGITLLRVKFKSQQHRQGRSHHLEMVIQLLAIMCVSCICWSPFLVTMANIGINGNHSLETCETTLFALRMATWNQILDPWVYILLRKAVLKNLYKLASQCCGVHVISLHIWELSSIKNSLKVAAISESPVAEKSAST

[2] = target: T1, FP receptor; experiment: aequorin luminescence assay in pcDNAIamp-FP-injected Xenopus oocytes; format: cell-based; settings: aequorin-loaded oocytes, compared to PGE2
Method: as §1

For prostaglandin F2α [PGF2α], the “agonist-induced Ca2+-dependent Cl- current response” value [1] was “prominent current responses” and the “agonist potency from dose-response of aequorin light emission” value [2] was “more potent agonists”.

Reference: patent US6358694B1, “Methods of identifying modulators of a prostaglandin receptor” (Merck Frosst Canada & Co., priority 1993, dated 2002)
